{"sequences": {"note": "Chains of the proteins cited; added tags and fusions are not shown. Lines headed by an entry give the natural chain unless they say otherwise; changes in a name come on top.", "UniProt P08173, whole entry": "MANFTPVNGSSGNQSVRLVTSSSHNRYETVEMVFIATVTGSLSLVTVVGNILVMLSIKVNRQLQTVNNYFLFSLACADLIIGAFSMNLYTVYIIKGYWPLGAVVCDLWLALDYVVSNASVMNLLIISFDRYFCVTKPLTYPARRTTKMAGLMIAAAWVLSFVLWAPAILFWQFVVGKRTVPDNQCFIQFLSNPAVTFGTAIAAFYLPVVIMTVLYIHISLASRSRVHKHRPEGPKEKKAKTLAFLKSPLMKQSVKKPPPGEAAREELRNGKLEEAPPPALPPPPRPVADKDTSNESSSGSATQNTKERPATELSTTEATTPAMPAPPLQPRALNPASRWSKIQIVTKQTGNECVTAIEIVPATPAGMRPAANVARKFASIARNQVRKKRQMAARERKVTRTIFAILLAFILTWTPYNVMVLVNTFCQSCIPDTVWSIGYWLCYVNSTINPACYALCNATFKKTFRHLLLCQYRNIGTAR", "UniProt P11229": "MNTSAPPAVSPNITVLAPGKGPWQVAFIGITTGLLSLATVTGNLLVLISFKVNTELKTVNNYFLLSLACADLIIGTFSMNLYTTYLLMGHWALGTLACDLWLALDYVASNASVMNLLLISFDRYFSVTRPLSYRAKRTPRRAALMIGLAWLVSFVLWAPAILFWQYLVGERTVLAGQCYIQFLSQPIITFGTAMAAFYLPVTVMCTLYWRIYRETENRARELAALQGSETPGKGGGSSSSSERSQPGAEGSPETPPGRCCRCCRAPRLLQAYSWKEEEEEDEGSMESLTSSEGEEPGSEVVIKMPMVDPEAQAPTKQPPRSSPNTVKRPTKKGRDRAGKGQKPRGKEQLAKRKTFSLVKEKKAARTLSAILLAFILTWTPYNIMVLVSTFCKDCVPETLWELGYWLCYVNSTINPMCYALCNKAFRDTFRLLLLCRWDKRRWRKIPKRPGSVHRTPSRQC"}, "source": "ChEMBL document CHEMBL1287723", "about": "“The discovery of new spirocyclic muscarinic M3 antagonists” (Bioorg Med Chem Lett, 2010)", "key": {"[1]": {"target": "Muscarinic acetylcholine receptor M4 (Homo sapiens, UniProt P08173)", "assay": "Displacement of [3H]NMS from human muscarinic M4 receptor expressed in CHO-K1 cells after 16 hrs by scintillation proximity assay", "format": "cell-based"}, "[2]": {"target": "Muscarinic acetylcholine receptor M1 (Homo sapiens, UniProt P11229)", "assay": "Displacement of [3H]NMS from human muscarinic M1 receptor expressed in CHO-K1 cells after 16 hrs by scintillation proximity assay", "format": "cell-based"}}, "note": "pIC50: −log10 of the molar value.", "data": [{"smiles": "C[N+]1(C)CCC(OC(=O)C(O)(c2ccccc2)C2CCCC2)C1", "note": "(configuration not stated) [GLYCOPYRRONIUM BROMIDE]", "values": [{"measurement": "pIC50", "setting": "[1]", "value": 9.80}, {"measurement": "pIC50", "setting": "[2]", "value": 9.90}]}]}
